{
  "sequences": {"note": "By UniProt entry, the sequences of proteins in these tests, tags left out. Where a name states a change or a piece, a line headed by the entry shows the natural chain unless it says otherwise.", "UniProt A0A287BIN3, entry or part of it": "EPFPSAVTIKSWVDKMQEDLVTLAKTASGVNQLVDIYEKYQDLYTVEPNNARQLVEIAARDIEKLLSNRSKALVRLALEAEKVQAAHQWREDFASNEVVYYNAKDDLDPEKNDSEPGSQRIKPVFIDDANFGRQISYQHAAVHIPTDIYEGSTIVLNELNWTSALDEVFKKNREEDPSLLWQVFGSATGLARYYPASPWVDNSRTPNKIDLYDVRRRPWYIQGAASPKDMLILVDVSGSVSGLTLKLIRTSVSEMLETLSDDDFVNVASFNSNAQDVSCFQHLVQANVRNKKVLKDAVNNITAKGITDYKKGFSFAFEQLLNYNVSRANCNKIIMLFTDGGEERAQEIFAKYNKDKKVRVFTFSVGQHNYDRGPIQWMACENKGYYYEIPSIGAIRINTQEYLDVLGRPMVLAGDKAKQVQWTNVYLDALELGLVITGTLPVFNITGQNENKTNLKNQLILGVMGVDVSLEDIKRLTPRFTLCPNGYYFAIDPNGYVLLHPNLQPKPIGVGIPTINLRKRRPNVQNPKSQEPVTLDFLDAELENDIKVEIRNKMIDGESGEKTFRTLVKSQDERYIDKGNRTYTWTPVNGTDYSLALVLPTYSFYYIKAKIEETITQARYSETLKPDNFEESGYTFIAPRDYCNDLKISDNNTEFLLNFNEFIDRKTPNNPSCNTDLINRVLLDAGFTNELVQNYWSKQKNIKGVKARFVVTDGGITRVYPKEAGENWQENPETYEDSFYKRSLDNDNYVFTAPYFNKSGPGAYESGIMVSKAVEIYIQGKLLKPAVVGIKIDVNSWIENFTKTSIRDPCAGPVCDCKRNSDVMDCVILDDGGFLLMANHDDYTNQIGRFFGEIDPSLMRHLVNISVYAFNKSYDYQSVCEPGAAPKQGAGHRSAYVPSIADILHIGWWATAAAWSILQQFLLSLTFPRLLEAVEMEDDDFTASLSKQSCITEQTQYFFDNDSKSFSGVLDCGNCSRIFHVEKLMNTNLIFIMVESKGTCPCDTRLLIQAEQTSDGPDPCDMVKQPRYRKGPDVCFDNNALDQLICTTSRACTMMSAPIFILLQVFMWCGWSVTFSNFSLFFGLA"},
  "source": "patent US7262052B1",
  "about": "“α-2/δ gene” (Warner Lambert Company, priority 1999, dated 2007)",
  "target": "Porcine α2δ-A (Sus scrofa, UniProt A0A287BIN3)",
  "test": "biochemical",
  "note": "Values joined by “and” are separate entries in the source; they are usually repeats but may differ in a detail not shown here. Equal values may be shown once.",
  "data": [
    {"smiles": "NCC1(CC(=O)O)CCCCC1", "note": "[[3H]gabapentin, gabapentin]", "values": [
      {"measurement": "Kd", "setting": "KD, single determinations (n = 2), 21° C., COS-7 membranes", "result": "0.0231 µM and 0.0212 µM"},
      {"measurement": "Kd", "setting": "Mean KD, mean of n = 2", "result": 22.2, "unit": "µM"}
    ]}
  ]
}
